The labels stand for the following.
B1: recombinant full-length human SAMHD1(1–626), wild type [human] / itself (parent)
chain: MQRADSEQPSKRPRCDDSPRTPSNTPSAEADWSPGLELHPDYKTWGPEQVCSFLRRGGFEEPVLLKNIRENEITGALLPCLDESRFENLGVSSLGERKKLLSYIQRLVQIHVDTMKVINDPIHGHIELHPLLVRIIDTPQFQRLRYIKQLGGGYYVFPGASHNRFEHSLGVGYLAGCLVHALGEKQPELQISERDVLCVQIAGLCHDLGHGPFSHMFDGRFIPLARPEVKWTHEQGSVMMFEHLINSNGIKPVMEQYGLIPEEDICFIKEQIVGPLESPVEDSLWPYKGRPENKSFLYEIVSNKRNGIDVDKWDYFARDCHHLGIQNNFDYKRFIKFARVCEVDNELRICARDKEVGNLYDMFHTRNSLHRRAYQHKVGNIIDTMITDAFLKADDYIEITGAGGKKYRISTAIDDMEAYTKLTDNIFLEILYSTDPKLKDAREILKQIEYRNLFKYVGETQPTGQIKIKREDYESLPKEVASAKPKVLLDVKLKAEDFIVDVINMDYGMQEKNPIDHVSFYCKTAPNRAIRITKNQVSQLLPEKFAEQLIRVYCKKVDRKSLYAARQYFVQWCADRNFTKPQDGDVIAPLITPQKKEWNDSTSVQNPTRLREASKSRVQLFKDDPM

The variants in this test derive from B1. Put plainly: size exclusion chromatography (tetramer peak height). As to conditions: with itself, SAMHD1 250 nm, flow rate 0.8 ml/min, read off a plot. In general terms: SEC sorts molecules by how far they enter the pores of the column.
[1] abbreviates: dGTP 50 μm (first point of the 50–200 μm series).
The mark [2] stands for this setting: dGTP 200 μm (last point of the 50–200 μm series).

Turning to chain 1 H206R D207N, the response reads like this: under setting [1], 67 mV; under setting [2], 140 mV.
The corresponding values for chain 1 D137A are 0 mV and 0 mV.
The corresponding values for chain 1 L620A F621A are 26 mV and 100 mV.
For the variant chain 1 V618A Q619A, the response is 15 mV under setting [1] and 67 mV under setting [2].
